Results published in PMC9569420 (Communications Biology, 2022).
Where “and” joins values, the source holds several entries; their conditions need not be identical. Identical values can stand only once.

Amino acid sequences for entries named in this document (tags omitted). A change or cut given only in a name is not applied to a line headed by its entry. Residues count along the entry.
UniProt O96013: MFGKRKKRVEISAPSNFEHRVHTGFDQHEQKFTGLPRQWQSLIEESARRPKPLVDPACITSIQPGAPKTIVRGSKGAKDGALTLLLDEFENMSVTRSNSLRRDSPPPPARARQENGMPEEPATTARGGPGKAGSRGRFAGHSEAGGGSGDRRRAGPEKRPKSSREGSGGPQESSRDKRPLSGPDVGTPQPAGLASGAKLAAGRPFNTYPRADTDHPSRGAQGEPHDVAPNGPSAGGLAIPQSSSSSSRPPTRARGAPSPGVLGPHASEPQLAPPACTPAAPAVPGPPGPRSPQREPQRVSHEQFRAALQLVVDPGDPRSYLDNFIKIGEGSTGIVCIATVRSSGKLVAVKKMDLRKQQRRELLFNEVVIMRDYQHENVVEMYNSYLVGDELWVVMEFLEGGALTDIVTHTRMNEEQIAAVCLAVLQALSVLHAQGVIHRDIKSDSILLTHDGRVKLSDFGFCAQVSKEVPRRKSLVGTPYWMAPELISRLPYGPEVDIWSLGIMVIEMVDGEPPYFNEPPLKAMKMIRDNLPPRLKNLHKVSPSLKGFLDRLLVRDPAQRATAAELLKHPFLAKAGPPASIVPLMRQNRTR
UniProt P57059: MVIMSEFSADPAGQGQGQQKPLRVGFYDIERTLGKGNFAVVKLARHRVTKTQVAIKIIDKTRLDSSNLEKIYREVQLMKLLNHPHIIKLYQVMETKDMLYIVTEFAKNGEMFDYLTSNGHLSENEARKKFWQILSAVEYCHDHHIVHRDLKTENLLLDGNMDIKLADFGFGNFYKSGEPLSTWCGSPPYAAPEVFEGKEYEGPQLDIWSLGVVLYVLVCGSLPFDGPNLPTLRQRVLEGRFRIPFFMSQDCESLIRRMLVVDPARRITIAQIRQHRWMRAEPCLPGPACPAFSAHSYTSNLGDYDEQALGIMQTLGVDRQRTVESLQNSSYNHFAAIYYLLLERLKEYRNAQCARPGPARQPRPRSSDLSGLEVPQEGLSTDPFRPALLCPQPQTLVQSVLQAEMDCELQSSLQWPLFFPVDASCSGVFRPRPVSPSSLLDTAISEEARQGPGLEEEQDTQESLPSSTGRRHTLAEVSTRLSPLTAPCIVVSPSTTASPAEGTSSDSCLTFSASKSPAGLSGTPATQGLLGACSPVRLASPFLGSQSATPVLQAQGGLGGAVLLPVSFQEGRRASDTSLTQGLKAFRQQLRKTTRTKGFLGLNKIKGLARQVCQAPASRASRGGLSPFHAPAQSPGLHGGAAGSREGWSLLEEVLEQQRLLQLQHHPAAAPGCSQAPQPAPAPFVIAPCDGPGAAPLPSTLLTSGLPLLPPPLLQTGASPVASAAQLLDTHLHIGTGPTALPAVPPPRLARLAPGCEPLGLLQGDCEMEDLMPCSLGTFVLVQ
UniProt Q16832, 22-855: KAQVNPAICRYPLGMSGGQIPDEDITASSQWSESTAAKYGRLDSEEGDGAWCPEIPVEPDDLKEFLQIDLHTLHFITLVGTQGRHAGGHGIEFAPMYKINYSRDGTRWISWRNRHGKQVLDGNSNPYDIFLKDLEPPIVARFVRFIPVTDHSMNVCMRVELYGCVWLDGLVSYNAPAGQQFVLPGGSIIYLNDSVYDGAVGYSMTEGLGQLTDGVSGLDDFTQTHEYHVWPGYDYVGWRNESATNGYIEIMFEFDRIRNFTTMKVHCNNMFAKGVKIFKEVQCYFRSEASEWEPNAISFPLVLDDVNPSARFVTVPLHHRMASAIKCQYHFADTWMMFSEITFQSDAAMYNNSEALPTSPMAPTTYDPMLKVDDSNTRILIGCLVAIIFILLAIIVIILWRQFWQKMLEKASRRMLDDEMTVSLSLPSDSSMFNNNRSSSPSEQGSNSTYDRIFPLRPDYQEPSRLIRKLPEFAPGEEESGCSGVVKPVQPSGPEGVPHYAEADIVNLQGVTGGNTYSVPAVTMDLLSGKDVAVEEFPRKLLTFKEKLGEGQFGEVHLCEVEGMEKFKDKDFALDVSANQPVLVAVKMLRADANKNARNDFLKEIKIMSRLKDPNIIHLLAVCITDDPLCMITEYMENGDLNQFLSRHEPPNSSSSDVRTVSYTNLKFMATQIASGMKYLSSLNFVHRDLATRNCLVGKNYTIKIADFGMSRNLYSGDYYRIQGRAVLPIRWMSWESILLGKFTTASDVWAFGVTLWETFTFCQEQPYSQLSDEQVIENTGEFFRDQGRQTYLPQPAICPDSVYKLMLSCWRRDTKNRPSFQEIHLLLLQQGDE
UniProt Q9UQB9: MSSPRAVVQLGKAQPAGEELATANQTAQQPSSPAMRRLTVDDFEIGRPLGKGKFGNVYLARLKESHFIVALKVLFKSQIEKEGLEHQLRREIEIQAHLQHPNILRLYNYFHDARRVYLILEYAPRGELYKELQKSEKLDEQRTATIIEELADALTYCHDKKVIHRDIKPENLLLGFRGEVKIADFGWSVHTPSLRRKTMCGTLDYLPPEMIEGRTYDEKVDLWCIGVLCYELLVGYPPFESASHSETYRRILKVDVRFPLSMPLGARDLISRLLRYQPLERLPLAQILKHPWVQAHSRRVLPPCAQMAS
UniProt Q8WXR4: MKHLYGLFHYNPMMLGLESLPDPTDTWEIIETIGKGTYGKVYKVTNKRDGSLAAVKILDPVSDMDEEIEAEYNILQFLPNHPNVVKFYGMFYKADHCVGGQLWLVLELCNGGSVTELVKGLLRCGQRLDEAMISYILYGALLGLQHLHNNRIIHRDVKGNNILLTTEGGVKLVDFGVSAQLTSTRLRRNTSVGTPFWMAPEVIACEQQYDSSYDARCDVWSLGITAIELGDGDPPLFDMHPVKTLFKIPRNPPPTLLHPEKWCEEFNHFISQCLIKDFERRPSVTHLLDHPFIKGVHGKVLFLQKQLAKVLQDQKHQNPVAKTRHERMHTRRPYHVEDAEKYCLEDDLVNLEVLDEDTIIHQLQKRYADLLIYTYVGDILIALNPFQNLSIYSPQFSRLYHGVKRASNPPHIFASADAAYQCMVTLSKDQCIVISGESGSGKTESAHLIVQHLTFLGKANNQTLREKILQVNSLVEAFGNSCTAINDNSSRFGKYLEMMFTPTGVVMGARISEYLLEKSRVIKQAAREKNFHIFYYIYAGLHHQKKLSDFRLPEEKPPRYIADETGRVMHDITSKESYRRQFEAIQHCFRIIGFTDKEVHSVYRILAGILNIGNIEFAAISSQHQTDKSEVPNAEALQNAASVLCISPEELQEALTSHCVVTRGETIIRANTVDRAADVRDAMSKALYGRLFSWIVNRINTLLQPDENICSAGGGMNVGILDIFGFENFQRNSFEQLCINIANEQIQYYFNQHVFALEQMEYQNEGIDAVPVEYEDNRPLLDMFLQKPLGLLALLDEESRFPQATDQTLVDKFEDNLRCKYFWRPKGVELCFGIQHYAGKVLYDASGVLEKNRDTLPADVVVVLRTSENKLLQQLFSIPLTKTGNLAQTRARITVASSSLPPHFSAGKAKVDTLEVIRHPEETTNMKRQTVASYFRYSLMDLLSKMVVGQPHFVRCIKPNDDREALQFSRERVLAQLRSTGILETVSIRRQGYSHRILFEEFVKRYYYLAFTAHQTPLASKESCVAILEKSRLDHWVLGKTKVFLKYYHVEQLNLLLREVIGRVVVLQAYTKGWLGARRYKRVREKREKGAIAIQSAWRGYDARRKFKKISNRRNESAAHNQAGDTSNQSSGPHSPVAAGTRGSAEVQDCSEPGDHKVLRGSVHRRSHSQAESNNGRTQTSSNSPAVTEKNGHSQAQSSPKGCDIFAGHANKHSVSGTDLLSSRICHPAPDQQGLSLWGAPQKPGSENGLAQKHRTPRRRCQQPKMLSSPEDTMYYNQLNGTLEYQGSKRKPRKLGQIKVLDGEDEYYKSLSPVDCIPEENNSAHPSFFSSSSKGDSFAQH
UniProt Q8IY84: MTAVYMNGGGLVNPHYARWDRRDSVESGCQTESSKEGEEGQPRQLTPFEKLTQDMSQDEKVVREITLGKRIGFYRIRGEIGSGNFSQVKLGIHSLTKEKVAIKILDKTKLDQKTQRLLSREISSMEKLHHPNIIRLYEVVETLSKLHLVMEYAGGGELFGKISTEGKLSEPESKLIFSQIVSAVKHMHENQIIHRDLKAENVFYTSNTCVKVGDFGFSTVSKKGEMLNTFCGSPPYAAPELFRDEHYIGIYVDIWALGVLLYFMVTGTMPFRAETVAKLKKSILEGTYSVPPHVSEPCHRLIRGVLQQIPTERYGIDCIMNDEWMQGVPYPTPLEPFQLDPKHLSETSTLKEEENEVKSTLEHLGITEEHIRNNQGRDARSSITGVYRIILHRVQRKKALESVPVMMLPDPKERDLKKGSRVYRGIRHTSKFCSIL
UniProt P07948, 1-491 isoform P07948-2: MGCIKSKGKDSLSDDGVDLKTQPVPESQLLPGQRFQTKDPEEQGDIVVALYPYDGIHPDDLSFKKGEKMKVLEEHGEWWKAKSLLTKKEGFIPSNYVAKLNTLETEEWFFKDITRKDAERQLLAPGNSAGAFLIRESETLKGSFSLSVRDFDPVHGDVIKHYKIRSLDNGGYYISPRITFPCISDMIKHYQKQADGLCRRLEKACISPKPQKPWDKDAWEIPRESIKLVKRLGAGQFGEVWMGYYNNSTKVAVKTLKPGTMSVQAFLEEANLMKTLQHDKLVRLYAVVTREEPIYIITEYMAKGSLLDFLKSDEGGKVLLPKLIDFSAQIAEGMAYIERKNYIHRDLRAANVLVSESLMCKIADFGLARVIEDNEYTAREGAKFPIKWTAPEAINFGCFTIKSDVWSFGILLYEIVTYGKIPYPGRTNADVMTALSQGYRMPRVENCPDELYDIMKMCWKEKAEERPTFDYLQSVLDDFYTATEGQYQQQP
UniProt P00519, whole entry: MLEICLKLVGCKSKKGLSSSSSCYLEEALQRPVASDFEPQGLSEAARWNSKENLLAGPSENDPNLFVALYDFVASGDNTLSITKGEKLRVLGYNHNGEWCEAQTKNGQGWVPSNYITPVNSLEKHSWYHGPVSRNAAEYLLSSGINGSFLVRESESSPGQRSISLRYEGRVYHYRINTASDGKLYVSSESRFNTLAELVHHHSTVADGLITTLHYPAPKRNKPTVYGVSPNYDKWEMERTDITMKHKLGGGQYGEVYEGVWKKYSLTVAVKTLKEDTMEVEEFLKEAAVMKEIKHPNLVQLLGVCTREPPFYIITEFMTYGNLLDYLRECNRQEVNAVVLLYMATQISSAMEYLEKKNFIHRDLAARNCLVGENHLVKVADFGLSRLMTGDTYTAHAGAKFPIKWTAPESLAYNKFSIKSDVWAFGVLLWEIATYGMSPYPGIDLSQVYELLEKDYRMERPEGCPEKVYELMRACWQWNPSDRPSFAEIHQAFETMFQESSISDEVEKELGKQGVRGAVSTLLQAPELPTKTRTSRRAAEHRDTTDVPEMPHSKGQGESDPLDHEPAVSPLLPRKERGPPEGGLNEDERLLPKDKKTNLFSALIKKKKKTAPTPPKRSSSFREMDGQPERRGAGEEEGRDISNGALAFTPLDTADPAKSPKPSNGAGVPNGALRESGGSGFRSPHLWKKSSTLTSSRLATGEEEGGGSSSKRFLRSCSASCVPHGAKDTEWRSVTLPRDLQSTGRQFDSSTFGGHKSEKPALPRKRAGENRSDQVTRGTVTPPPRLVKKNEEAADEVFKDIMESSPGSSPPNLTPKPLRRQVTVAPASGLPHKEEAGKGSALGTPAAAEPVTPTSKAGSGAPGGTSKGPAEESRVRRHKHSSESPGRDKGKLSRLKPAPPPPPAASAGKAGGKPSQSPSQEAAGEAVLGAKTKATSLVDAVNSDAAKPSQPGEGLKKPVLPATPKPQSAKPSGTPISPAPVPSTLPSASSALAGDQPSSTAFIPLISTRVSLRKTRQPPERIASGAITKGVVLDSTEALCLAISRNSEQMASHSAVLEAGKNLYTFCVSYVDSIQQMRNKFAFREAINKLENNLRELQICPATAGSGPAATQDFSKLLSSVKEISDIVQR
UniProt P49759: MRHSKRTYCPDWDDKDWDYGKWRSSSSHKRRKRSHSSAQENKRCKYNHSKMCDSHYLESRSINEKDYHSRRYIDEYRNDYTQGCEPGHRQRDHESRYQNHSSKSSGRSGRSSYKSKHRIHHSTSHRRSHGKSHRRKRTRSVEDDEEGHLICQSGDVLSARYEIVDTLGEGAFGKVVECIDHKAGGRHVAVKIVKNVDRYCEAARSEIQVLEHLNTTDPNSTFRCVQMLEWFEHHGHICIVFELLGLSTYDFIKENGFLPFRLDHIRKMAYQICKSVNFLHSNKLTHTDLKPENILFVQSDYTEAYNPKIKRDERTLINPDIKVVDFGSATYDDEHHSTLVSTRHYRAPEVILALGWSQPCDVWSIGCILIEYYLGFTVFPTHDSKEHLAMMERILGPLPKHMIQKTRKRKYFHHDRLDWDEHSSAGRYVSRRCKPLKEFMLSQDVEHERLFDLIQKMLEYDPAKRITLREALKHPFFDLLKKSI

Legend:
Format in all cases: biochemical
Conditions in all cases: 10µM
NEK11 = target: T1, NEK11 (Homo sapiens, UniProt Q8NG66); assay: HotSpot kinase assay
T1 construct: purchased Reaction Biology Corporation

IKKa/CHUK = target: T2, IKKa/CHUK (Homo sapiens, UniProt O15111); assay: HotSpot kinase assay
T2 construct: purchased Reaction Biology Corporation

NEK5 = target: T3, NEK5 (Homo sapiens, UniProt Q6P3R8); assay: HotSpot kinase assay
T3 construct: purchased Reaction Biology Corporation

BMX/ETK = target: T4, BMX/ETK (Homo sapiens, UniProt P51813); assay: HotSpot kinase assay
T4 construct: purchased Reaction Biology Corporation

PKCd = target: T5, PKCd (Homo sapiens, UniProt Q05655)
T5 construct: purchased Reaction Biology Corporation

MYLK4 = target: T6, MYLK4 (Homo sapiens, UniProt Q86YV6); assay: HotSpot kinase assay
T6 construct: purchased Reaction Biology Corporation

MST1/STK4 = target: T7, MST1/STK4 (Homo sapiens, UniProt Q13043); assay: HotSpot kinase assay
T7 construct: purchased Reaction Biology Corporation

GRK1 = target: T8, GRK1 (Homo sapiens, UniProt Q15835); assay: HotSpot kinase assay
T8 construct: purchased Reaction Biology Corporation

PAK4 = target: T9, PAK4 (Homo sapiens, UniProt O96013); assay: HotSpot kinase assay
T9 construct: purchased Reaction Biology Corporation

TRKB = target: T10, TRKB (Homo sapiens, UniProt Q16620); assay: HotSpot kinase assay
T10 construct: purchased Reaction Biology Corporation

SIK1 = target: T11, SIK1 (Homo sapiens, UniProt P57059); assay: HotSpot kinase assay
T11 construct: purchased Reaction Biology Corporation

KDR/VEGFR2 = target: T12, KDR/VEGFR2 (Homo sapiens, UniProt P35968); assay: HotSpot kinase assay
T12 construct: purchased Reaction Biology Corporation

DDR2 = target: T13, DDR2 (Homo sapiens, UniProt Q16832); assay: HotSpot kinase assay
T13 construct: purchased Reaction Biology Corporation

CDK1/cyclin A = target: T14, CDK1/cyclin A (Homo sapiens, UniProt P06493); assay: HotSpot kinase assay
T14 construct: purchased Reaction Biology Corporation

RON/MST1R = target: T15, RON/MST1R (Homo sapiens, UniProt Q04912); assay: HotSpot kinase assay
T15 construct: purchased Reaction Biology Corporation

AURORA C = target: T16, AURORA C (Homo sapiens, UniProt Q9UQB9); assay: HotSpot kinase assay
T16 construct: purchased Reaction Biology Corporation

MYO3b = target: T17, MYO3b (Homo sapiens, UniProt Q8WXR4); assay: HotSpot kinase assay
T17 construct: purchased Reaction Biology Corporation

NEK4 = target: T18, NEK4 (Homo sapiens, UniProt P51957); assay: HotSpot kinase assay
T18 construct: purchased Reaction Biology Corporation

NIM1 = target: T19, NIM1 (Homo sapiens, UniProt Q8IY84); assay: HotSpot kinase assay
T19 construct: purchased Reaction Biology Corporation

AMPK (A1/B2/G2) = target: T20, AMPK (A1/B2/G2) (Homo sapiens, UniProt Q13131); assay: HotSpot kinase assay
T20 construct: purchased Reaction Biology Corporation

IRR/INSRR = target: T21, IRR/INSRR (Homo sapiens, UniProt P14616); assay: HotSpot kinase assay
T21 construct: purchased Reaction Biology Corporation

SRMS = target: T22, SRMS (Homo sapiens, UniProt Q9H3Y6); assay: HotSpot kinase assay
T22 construct: purchased Reaction Biology Corporation

Aurora A = target: T23, Aurora A (Homo sapiens, UniProt O14965); assay: HotSpot kinase assay
T23 construct: purchased Reaction Biology Corporation

AKT3 = target: T24, AKT3 (Homo sapiens, UniProt Q9Y243)
T24 construct: purchased Reaction Biology Corporation

SGK3/SGKL = target: T25, SGK3/SGKL (Homo sapiens, UniProt Q96BR1); assay: HotSpot kinase assay
T25 construct: purchased Reaction Biology Corporation

LYN B = target: T26, LYN B (Homo sapiens, UniProt P07948); assay: HotSpot kinase assay
T26 construct: purchased Reaction Biology Corporation

PAK5 = target: T27, PAK5 (Homo sapiens, UniProt Q9P286); assay: HotSpot kinase assay
T27 construct: purchased Reaction Biology Corporation

AKT2 = target: T28, AKT2 (Homo sapiens, UniProt P31751)
T28 construct: purchased Reaction Biology Corporation

NEK6 = target: T29, NEK6 (Homo sapiens, UniProt Q9HC98); assay: HotSpot kinase assay
T29 construct: purchased Reaction Biology Corporation

MARK2/PAR-1Ba = target: T30, MARK2/PAR-1Ba (Homo sapiens, UniProt Q7KZI7); assay: HotSpot kinase assay
T30 construct: purchased Reaction Biology Corporation

STK38/NDR1 = target: T31, STK38/NDR1 (Homo sapiens, UniProt Q15208); assay: HotSpot kinase assay
T31 construct: purchased Reaction Biology Corporation

DCAMKL2 = target: T32, DCAMKL2 (Homo sapiens, UniProt Q8N568); assay: HotSpot kinase assay
T32 construct: purchased Reaction Biology Corporation

COT1/MAP3K8 = target: T33, COT1/MAP3K8 (Homo sapiens, UniProt P41279); assay: HotSpot kinase assay
T33 construct: purchased Reaction Biology Corporation

PIM2 = target: T34, PIM2 (Homo sapiens, UniProt Q9P1W9); assay: HotSpot kinase assay
T34 construct: purchased Reaction Biology Corporation

TGFBR2 = target: T35, TGFBR2 (Homo sapiens, UniProt P37173); assay: HotSpot kinase assay
T35 construct: purchased Reaction Biology Corporation

ALK1/ACVRL1 = target: T36, ALK1/ACVRL1 (Homo sapiens, UniProt P37023); assay: HotSpot kinase assay
T36 construct: purchased Reaction Biology Corporation

EIF2AK3 = target: T37, EIF2AK3 (Homo sapiens, UniProt Q9NZJ5); assay: HotSpot kinase assay
T37 construct: purchased Reaction Biology Corporation

ZIPK/DAPK3 = target: T38, ZIPK/DAPK3 (Homo sapiens, UniProt O43293); assay: HotSpot kinase assay
T38 construct: purchased Reaction Biology Corporation

RIPK4 = target: T39, RIPK4 (Homo sapiens, UniProt P57078); assay: HotSpot kinase assay
T39 construct: purchased Reaction Biology Corporation

ABL1 = target: T40, ABL1 (Homo sapiens, UniProt P00519)
T40 construct: purchased Reaction Biology Corporation

Haspin = target: T41, Haspin (Homo sapiens, UniProt Q8TF76); assay: HotSpot kinase assay
T41 construct: purchased Reaction Biology Corporation

AMPK(A1/B1/G3) = target: T42, AMPK(A1/B1/G3) (Homo sapiens, UniProt Q13131); assay: HotSpot kinase assay
T42 construct: purchased Reaction Biology Corporation

EPHA3 = target: T43, EPHA3 (Homo sapiens, UniProt P29320); assay: HotSpot kinase assay
T43 construct: purchased Reaction Biology Corporation

CLK1 = target: T44, CLK1 (Homo sapiens, UniProt P49759); assay: HotSpot kinase assay
T44 construct: purchased Reaction Biology Corporation

Question: Which “% Enzyme Activity (relative to DMSO controls)” value (NEK11) does the source give for `CO[C@@H]1[C@H](N(C)C(=O)CCC(=O)NCc2cn(CCCS(=O)(=O)O)nn2)C[C@H]2O[C@]1(C)n1c3ccccc3c3c4c(c5c6ccccc6n2c5c31)C(=O)NC4` [CIMSS] here?
Answer: 49.43%

Question: And the “% Enzyme Activity (relative to DMSO controls)” value (IKKa/CHUK)?
Answer: 30.89%

Question: What about the “% Enzyme Activity (relative to DMSO controls)” value (NEK5) of the same compound?
Answer: 6.22%

Question: And the “% Enzyme Activity (relative to DMSO controls)” value (BMX/ETK)?
Answer: 1.32%

Question: And the “% Enzyme Activity (relative to DMSO controls)” value (PKCd)?
Answer: 7.89%

Question: And the “% Enzyme Activity (relative to DMSO controls)” value (MYLK4)?
Answer: 5.38%

Question: And the “% Enzyme Activity (relative to DMSO controls)” value (MST1/STK4)?
Answer: 3.39%

Question: What about the “% Enzyme Activity (relative to DMSO controls)” value (GRK1) of the same compound?
Answer: 4.55%

Question: What about the “% Enzyme Activity (relative to DMSO controls)” value (PAK4) of the same compound?
Answer: 7.24%

Question: And the “% Enzyme Activity (relative to DMSO controls)” value (TRKB)?
Answer: 1.73%

Question: What about the “% Enzyme Activity (relative to DMSO controls)” value (SIK1) of the same compound?
Answer: 0.64%

Question: And the “% Enzyme Activity (relative to DMSO controls)” value (KDR/VEGFR2)?
Answer: 6.16%

Question: And the “% Enzyme Activity (relative to DMSO controls)” value (DDR2)?
Answer: 1.45%

Question: And the “% Enzyme Activity (relative to DMSO controls)” value (CDK1/cyclin A)?
Answer: 18.54%

Question: And the “% Enzyme Activity (relative to DMSO controls)” value (RON/MST1R)?
Answer: 25.03%

Question: And the “% Enzyme Activity (relative to DMSO controls)” value (AURORA C)?
Answer: 2.18%

Question: What about the “% Enzyme Activity (relative to DMSO controls)” value (MYO3b) of the same compound?
Answer: 5.12%

Question: And the “% Enzyme Activity (relative to DMSO controls)” value (NEK4)?
Answer: 5.73%

Question: What about the “% Enzyme Activity (relative to DMSO controls)” value (NIM1) of the same compound?
Answer: 46.56%

Question: What about the “% Enzyme Activity (relative to DMSO controls)” value (AMPK (A1/B2/G2)) of the same compound?
Answer: -0.06% and -0.34%

Question: And the “% Enzyme Activity (relative to DMSO controls)” value (IRR/INSRR)?
Answer: 3.78%

Question: What about the “% Enzyme Activity (relative to DMSO controls)” value (SRMS) of the same compound?
Answer: 90.39%

Question: And the “% Enzyme Activity (relative to DMSO controls)” value (Aurora A)?
Answer: 1.08%

Question: And the “% Enzyme Activity (relative to DMSO controls)” value (AKT3)?
Answer: 9.86%

Question: And the “% Enzyme Activity (relative to DMSO controls)” value (SGK3/SGKL)?
Answer: 58.53%

Question: And the “% Enzyme Activity (relative to DMSO controls)” value (LYN B)?
Answer: 2.48%

Question: And the “% Enzyme Activity (relative to DMSO controls)” value (PAK5)?
Answer: 7.41%

Question: What about the “% Enzyme Activity (relative to DMSO controls)” value (AKT2) of the same compound?
Answer: 29.76%

Question: What about the “% Enzyme Activity (relative to DMSO controls)” value (NEK6) of the same compound?
Answer: 87.72%

Question: What about the “% Enzyme Activity (relative to DMSO controls)” value (MARK2/PAR-1Ba) of the same compound?
Answer: 2.21%

Question: What about the “% Enzyme Activity (relative to DMSO controls)” value (STK38/NDR1) of the same compound?
Answer: 9.08%

Question: And the “% Enzyme Activity (relative to DMSO controls)” value (DCAMKL2)?
Answer: 86.26%

Question: And the “% Enzyme Activity (relative to DMSO controls)” value (COT1/MAP3K8)?
Answer: 103.54%

Question: What about the “% Enzyme Activity (relative to DMSO controls)” value (PIM2) of the same compound?
Answer: 20.94%

Question: And the “% Enzyme Activity (relative to DMSO controls)” value (TGFBR2)?
Answer: 108.40%

Question: What about the “% Enzyme Activity (relative to DMSO controls)” value (ALK1/ACVRL1) of the same compound?
Answer: 69.61%

Question: What about the “% Enzyme Activity (relative to DMSO controls)” value (EIF2AK3) of the same compound?
Answer: 60.18%

Question: What about the “% Enzyme Activity (relative to DMSO controls)” value (ZIPK/DAPK3) of the same compound?
Answer: 5.05%

Question: What about the “% Enzyme Activity (relative to DMSO controls)” value (RIPK4) of the same compound?
Answer: 98.47%

Question: And the “% Enzyme Activity (relative to DMSO controls)” value (ABL1)?
Answer: 4.92%

Question: And the “% Enzyme Activity (relative to DMSO controls)” value (Haspin)?
Answer: 49.36%

Question: And the “% Enzyme Activity (relative to DMSO controls)” value (AMPK(A1/B1/G3))?
Answer: 0.22% and 0.07%

Question: And the “% Enzyme Activity (relative to DMSO controls)” value (EPHA3)?
Answer: 37.82%

Question: What about the “% Enzyme Activity (relative to DMSO controls)” value (CLK1) of the same compound?
Answer: 3.79%
